# Assay results as given in ChEMBL document CHEMBL3351908, “Alpha-ethyltryptamines as dual dopamine-serotonin releasers” (2014).
# Sequences of proteins named here, by UniProt entry; tags and fusion partners are left off. Residues count along the entry.
# UniProt P23977, whole entry, looked up: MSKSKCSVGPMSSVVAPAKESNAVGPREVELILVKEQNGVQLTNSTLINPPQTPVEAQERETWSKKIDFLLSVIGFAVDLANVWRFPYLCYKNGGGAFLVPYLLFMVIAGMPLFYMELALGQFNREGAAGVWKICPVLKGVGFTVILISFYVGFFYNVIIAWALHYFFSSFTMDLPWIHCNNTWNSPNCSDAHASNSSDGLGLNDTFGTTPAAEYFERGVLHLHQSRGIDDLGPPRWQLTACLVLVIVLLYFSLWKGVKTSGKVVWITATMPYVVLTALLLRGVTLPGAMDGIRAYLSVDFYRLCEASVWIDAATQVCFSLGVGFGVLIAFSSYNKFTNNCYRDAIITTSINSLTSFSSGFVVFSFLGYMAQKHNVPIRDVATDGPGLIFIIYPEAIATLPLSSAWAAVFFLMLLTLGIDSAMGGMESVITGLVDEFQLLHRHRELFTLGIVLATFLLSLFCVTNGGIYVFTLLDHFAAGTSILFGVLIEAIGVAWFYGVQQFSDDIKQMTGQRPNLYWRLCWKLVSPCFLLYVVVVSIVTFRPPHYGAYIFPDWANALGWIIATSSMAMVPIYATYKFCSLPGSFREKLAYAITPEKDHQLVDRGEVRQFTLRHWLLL
# UniProt Q9WTR4, 1-597: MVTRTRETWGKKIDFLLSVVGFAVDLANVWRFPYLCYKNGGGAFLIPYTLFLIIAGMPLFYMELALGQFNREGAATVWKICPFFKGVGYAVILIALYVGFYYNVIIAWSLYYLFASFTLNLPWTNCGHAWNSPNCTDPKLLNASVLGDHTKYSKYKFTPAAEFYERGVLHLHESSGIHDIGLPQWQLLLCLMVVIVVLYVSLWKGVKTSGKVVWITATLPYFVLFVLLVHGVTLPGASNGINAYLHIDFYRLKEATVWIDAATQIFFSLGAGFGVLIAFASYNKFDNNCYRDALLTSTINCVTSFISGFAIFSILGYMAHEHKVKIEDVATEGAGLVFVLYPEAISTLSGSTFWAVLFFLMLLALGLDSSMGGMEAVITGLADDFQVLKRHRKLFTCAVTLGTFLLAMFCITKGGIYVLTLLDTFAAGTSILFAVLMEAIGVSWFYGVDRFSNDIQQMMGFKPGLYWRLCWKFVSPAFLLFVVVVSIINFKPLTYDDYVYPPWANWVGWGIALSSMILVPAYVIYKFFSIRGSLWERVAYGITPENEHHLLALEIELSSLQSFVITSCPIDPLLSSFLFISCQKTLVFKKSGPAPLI
# UniProt P28223, whole entry, looked up: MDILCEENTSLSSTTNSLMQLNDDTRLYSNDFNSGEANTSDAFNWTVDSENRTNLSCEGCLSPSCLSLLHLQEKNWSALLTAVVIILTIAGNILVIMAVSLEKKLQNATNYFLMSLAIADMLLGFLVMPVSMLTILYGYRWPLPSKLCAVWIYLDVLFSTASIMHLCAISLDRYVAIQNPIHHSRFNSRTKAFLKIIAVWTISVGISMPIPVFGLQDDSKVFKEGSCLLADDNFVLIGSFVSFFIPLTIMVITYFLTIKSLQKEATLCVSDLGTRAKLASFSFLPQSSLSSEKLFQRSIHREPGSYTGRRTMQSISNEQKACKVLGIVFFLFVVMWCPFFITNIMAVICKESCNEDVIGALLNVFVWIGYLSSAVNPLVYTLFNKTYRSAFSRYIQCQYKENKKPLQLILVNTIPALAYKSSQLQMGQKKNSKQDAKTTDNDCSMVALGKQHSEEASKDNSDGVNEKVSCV
# Target: Sodium-dependent dopamine transporter (Rattus norvegicus, UniProt P23977)
# Assay: Induction of DAT-mediated dopamine release in rat brain synaptosomes by [3H]DA release assay; call rule not given here
row,SMILES,EC50 [nM]
1,CC[C@@H](N)Cc1c[nH]c2ccccc12,57.6
2,CC(N)Cc1c[nH]c2ccc(Cl)cc12 (stereo not drawn),54.3

# Target: T1, Norepinephrine transporter (Rattus norvegicus, UniProt Q9WTR4)
# Assay: Inhibition of NET-mediated norepinephrine release in rat brain synaptosomes by [3H]NE release assay
row,SMILES,IC50 [nM]
1,CCNCCc1c[nH]c2ccccc12,3860

# Target: T1, Norepinephrine transporter
# Assay: Induction of NET-mediated norepinephrine release in rat brain synaptosomes by [3H]NE release assay
row,SMILES,EC50 [nM]
1,COc1cccc2c(CCN)c[nH]c12,5600
2,CCC(N)Cc1c[nH]c2ccc(Cl)cc12 (stereo not drawn),> 10000
3,CNCCc1c[nH]c2ccccc12,733
4,COc1ccc2c(CCN)c[nH]c2c1,465
5,COc1cccc2[nH]cc(CCN)c12,> 10000
6,CC[C@@H](N)Cc1c[nH]c2ccccc12,592
7,CCC(N)Cc1c[nH]c2ccc(F)cc12 (stereo not drawn),5330
8,NCCc1c[nH]c2cc(F)ccc12,1570
9,NCCc1c[nH]c2ccccc12,716
10,COc1ccc2[nH]cc(CCN)c2c1,> 10000
11,Cc1ccc2c(CCN)c[nH]c2c1,> 10000
12,Cc1cccc2c(CCN)c[nH]c12,> 10000
13,CC[C@H](N)Cc1c[nH]c2ccccc12,3670
14,Cn1cc(CCN)c2ccccc21,> 10000
15,NCCc1c[nH]c2cccc(F)c12,1120
16,Cc1ccc2[nH]cc(CCN)c2c1,> 10000
17,NCCc1c[nH]c2c(Cl)cccc12,656
18,NCCc1c[nH]c2ccc(Br)cc12,> 10000
19,CC(N)Cc1c[nH]c2ccccc12 (stereo not drawn),112
20,CCC(N)Cc1c[nH]c2ccccc12 (stereo not drawn),640
21,NCCc1c[nH]c2ccc(F)cc12,464
22,CC(N)Cc1c[nH]c2ccc(Cl)cc12 (stereo not drawn),3430
23,NCCc1c[nH]c2ccc(Cl)cc12,> 10000
24,CC(N)Cc1c[nH]c2ccc(F)cc12 (stereo not drawn),78

# Target: 5-hydroxytryptamine receptor 2A (Homo sapiens, UniProt P28223)
# Assay: Agonist activity at 5HT2A receptor (unknown origin) by cell based calcium mobilization assay
row,SMILES,EC50
1,CC[C@H](N)Cc1c[nH]c2ccccc12,Not Active
